Compound activity: PubChem BioAssay, Broad Institute
E-sel inducer: induces E-selectin expression in human endothelial cells; activation, % at 7.58 µM; 260,000 tested, 0.37% active; HUVEC E-selectin immunofluorescence imaging; normalized: neutral wells 0, TNF-alpha wells 100; P16581;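 active means mean E-selectin-positive cell signal at least 10% of the positive control, reached in at least 60% of replicates, without over 20% cell loss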
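Test system: HUVEC | Signal: Immunofluorescence imaging | Read-out: Percent E-selectin-positive cells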
RAD52 anneal inh: RAD52 (human) annealing inhibition; AID 651710; P43351; inhibition, % at 18.7 µM; recombinant RAD52 DNA annealing, FRET fluorescence; 360,000 tested, 0.46% active;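 active means every replicate showing at least 50% inhibition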
MLL AF4-AF9 inh: inhibitors of human MLL-AF4/AF9 interaction | P42568 | AlphaScreen, biotin-AF4 peptide binding to FLAG-AF9 | inhibition, % at 10 µM | 350,000 tested, 0.47% active | AID 651704;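 active means every replicate reaching a set inhibition limit, whatever the replicate mean, cut at about 25% in these data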
SIRT5 inh: sirtuin-5 (human) deacylase inhibition. Purified SirT5, succinyl-peptide AMC, trypsin-coupled fluorescence. inhibition, % at 15 µM. 330,000 tested, 1.1% active. Q9NXA8; in the data active means inhibition above about 15%
Yeast UUG start-1: modulators of yeast start codon fidelity, primary screen, whole organism, S. cerevisiae, single point, plate reader. S. cerevisiae UUG-firefly luciferase reporter, luminescence/redox ratio. activity score, % at 18.7 µM. hit rate 0.13% among 350,000;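 active = replicate mean at a twofold rise or more, about +100% in these data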;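 also: firefly luciferase made from a UUG start codon reports start codon fidelity; reporter light over untreated wells divided by growth signal over untreated wells; some hits fall short of that in this replicate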
RAD54 inh: inhibitors of human RAD54 branch migration. Q92698. RAD54 Holliday junction branch migration, FAM/BHQ fluorescence. inhibition, % at 10.4 µM. 360,000 tested, 0.14% active. AID 602329;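 active means mean normalized replicate activity at least 40 and at least half of replicates scoring 40 or more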;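 further: inhibitors cause a drop in the FAM fluorescence signal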
Yeast UUG start-2: modulators of start codon recognition fidelity in yeast; shares compounds with Yeast UUG start-1; S. cerevisiae UUG-start firefly luciferase, luminescence, 4 h; 100% means double the DMSO signal; activation, % at 38 µM; 540 tested, under 10 active;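 active means signal increase whose fitted curve reaches an absolute level of 40 at a concentration under 10 µM; inactive means activity opposite to the expected increase, or the rest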
Large screens that a line does not name were inactive (follow-up assays come after a bar, where they were run). Compounds with a hit are over-represented: about 1.8% of the library has one in this group of screens.

COc1cc(CCC(=O)OCC(=O)Nc2cccc(S(=O)(=O)N(C)C)c2)cc(OC)c1OC	none (no result: Yeast UUG start-1, RAD54 inh)
CCN(CC)S(=O)(=O)c1ccc(NC(=O)COC(=O)CCc2cc(OC)c(OC)c(OC)c2)cc1	none (no result: E-sel inducer, RAD52 anneal inh, MLL AF4-AF9 inh, SIRT5 inh, Yeast UUG start-1, RAD54 inh) | Yeast UUG start-2 inactive
CO[C@H]1CN(C)C(=O)c2cc(NC(=O)Nc3ccccc3)ccc2OC[C@H](C)N(C(=O)Nc2c(C)noc2C)C[C@H]1C	none
COc1ccc(NC(=O)N(C)C[C@@H]2Oc3ccc(NS(=O)(=O)c4ccc(Cl)cc4)cc3C(=O)N([C@H](C)CO)C[C@H]2C)cc1	none
Cc1ccc(C2=NNC(c3cccc(F)c3)S2)cc1 (stereo unspecified)	none (no result: Yeast UUG start-1, RAD54 inh)
Fc1cccc(C2NN=C(c3ccccc3)S2)c1 (stereo unspecified)	Yeast UUG start-1 267.4 (no result: E-sel inducer) | Yeast UUG start-2 inactive
CO[C@H]1CN(C)C(=O)c2ccc(NC(=O)Cc3ccccc3)cc2OC[C@@H](C)N(C)C[C@@H]1C	none
CCCC(=O)Nc1ccccc1NC(=O)c1ccc(OC(C)=O)cc1	Yeast UUG start-1 443.5 (no result: E-sel inducer) | Yeast UUG start-2 inactive
CCCC(=O)Nc1ccccc1NC(=O)c1ccc(OCC)c(OCC)c1	none (no result: E-sel inducer, SIRT5 inh, Yeast UUG start-1, RAD54 inh)
C[C@@H]1CN([C@@H](C)CO)C(=O)Cc2cc(NC(=O)Nc3ccc(F)cc3)ccc2O[C@H]1CN(C)C(=O)Nc1ccccc1	none (no result: E-sel inducer)
CN(C)C(=O)c1cc2c(c(-c3cccc(-c4ccc(F)cc4)c3)n1)[C@H](CCO)N([S@@](=O)C(C)(C)C)C2	none (no result: Yeast UUG start-1)
Cc1cccc(C(=O)Nc2cccnc2Cl)c1	Yeast UUG start-1 145.9 (no result: E-sel inducer) | Yeast UUG start-2 inactive
O=C(Nc1cccnc1Cl)c1cccc(F)c1	none (no result: Yeast UUG start-1, RAD54 inh)
COc1cc(OC)cc(C(=O)Nc2cccc(NC(=O)c3cccs3)c2)c1	Yeast UUG start-1 123.8 | Yeast UUG start-2 inactive
Cc1noc(C)c1S(=O)(=O)N1CCCC(C(=O)Nc2cccnc2)C1 (stereo unspecified)	Yeast UUG start-1 614.1 (no result: E-sel inducer, RAD52 anneal inh, MLL AF4-AF9 inh, SIRT5 inh) | Yeast UUG start-2 inactive
C/C=C/c1cnc2c(c1)C(=O)N([C@@H](C)CO)C[C@@H](C)[C@@H](CN(C)C(=O)Cc1ccccn1)O2	Yeast UUG start-1 143.2 | Yeast UUG start-2 inactive
CC(C)CC#Cc1cnc2c(c1)C(=O)N([C@H](C)CO)C[C@@H](C)[C@H](CN(C)Cc1ccccn1)O2	Yeast UUG start-1 144.1 | Yeast UUG start-2 inactive
C/C=C/c1cnc2c(c1)C(=O)N([C@H](C)CO)C[C@H](C)[C@@H](CN(C)C(=O)Cc1ccccn1)O2	none (no result: MLL AF4-AF9 inh)
N#Cc1cccc(-c2ccc3c(c2)[C@H]2[C@H](CCN2C(=O)CN2CCOCC2)[C@H](CO)N3)c1	none (no result: RAD52 anneal inh, MLL AF4-AF9 inh, SIRT5 inh)
Cc1ccc(S(=O)(=O)N[C@H]2CC[C@@H](CCNC(=O)c3ccc4c(c3)OCO4)O[C@@H]2CO)cc1	Yeast UUG start-1 169.7 | Yeast UUG start-2 inactive
COC(=O)c1ccccc1NC(=O)CNC(=O)c1ccc(OC)cc1	Yeast UUG start-1 264.2 (no result: E-sel inducer) | Yeast UUG start-2 inactive
COc1ccc(C(=O)Nc2ccccc2C(N)=O)cc1	none (no result: E-sel inducer, RAD52 anneal inh, MLL AF4-AF9 inh, SIRT5 inh)
COc1ccc(S(=O)(=O)Nc2ccc3c(c2)C(=O)N([C@@H](C)CO)C[C@H](C)[C@@H](CN(C)C)OCCCC[C@H](C)O3)cc1	none (no result: Yeast UUG start-1)
CCS(=O)(=O)Nc1ccc2c(c1)C(=O)N(C)C[C@H](OC)[C@H](C)CN(C(=O)NC(C)C)[C@@H](C)CO2	none
COc1ccc(C(C#N)N2CCC(c3ccccc3)=N2)cc1 (stereo unspecified)	Yeast UUG start-1 182.7 | Yeast UUG start-2 inactive
COc1cc(C(C#N)N2N=C(c3ccccc3)CC2c2ccccc2)ccc1O (stereo unspecified)	none (no result: E-sel inducer, RAD52 anneal inh, MLL AF4-AF9 inh, SIRT5 inh)
COc1ccc(CCNS(=O)(=O)c2ccc(Br)cc2)cc1OC	none
COc1ccc(CCNS(=O)(=O)c2ccc(Cl)cc2)cc1OC	none | Yeast UUG start-2 inactive
COc1ccc(CCNS(=O)(=O)c2ccc(OC)c(OC)c2)cc1OC	none
COc1ccc(CCNS(=O)(=O)c2ccccc2)cc1OC	Yeast UUG start-1 705.5 (no result: E-sel inducer, RAD52 anneal inh, MLL AF4-AF9 inh, SIRT5 inh) | Yeast UUG start-2 inactive
COc1ccc(NC(=O)c2noc(C(C)C)c2[N+](=O)[O-])cc1	Yeast UUG start-1 528.3 (no result: E-sel inducer, SIRT5 inh) | Yeast UUG start-2 inactive
Cc1noc(C)c1S(=O)(=O)N(C)C[C@@H]1OCCCC[C@@H](C)Oc2ccc(NC(=O)Nc3cccc4ccccc34)cc2C(=O)N([C@@H](C)CO)C[C@H]1C	none
C[C@@H]1CCCCO[C@@H](CN(C)C(=O)Cc2ccccc2)[C@H](C)CN([C@@H](C)CO)C(=O)c2cc(NC(=O)Nc3ccccc3)ccc2O1	none (no result: E-sel inducer)
COCCNC(=O)C[C@H]1C[C@H]2c3cc(NC(=O)c4ccc5c(c4)OCO5)ccc3O[C@H]2[C@@H](CO)O1	Yeast UUG start-1 136.8 | Yeast UUG start-2 inactive
COC(=O)C[C@@H]1C[C@@H]2c3cc(NC(=O)Nc4ccccc4F)ccc3O[C@@H]2[C@@H](CO)O1	Yeast UUG start-1 71.5 | Yeast UUG start-2 inactive
COCCNC(=O)C[C@H]1C[C@@H]2c3cc(NC(=O)c4ccc5c(c4)OCO5)ccc3O[C@@H]2[C@@H](CO)O1	none
O=C(O)C[C@@H]1C[C@H]2c3cc(NC(=O)Nc4ccccc4F)ccc3O[C@H]2[C@H](CO)O1	none
Cc1noc(C)c1S(=O)(=O)Nc1ccc2c(c1)CC(=O)N([C@@H](C)CO)C[C@@H](C)[C@@H](CN(C)C)O2	none
O=C(c1cccnc1)N1C[C@@H]2[C@H](c3ccccc31)[C@@H](CO)N2C(=O)C1CCOCC1	Yeast UUG start-1 116.7 | Yeast UUG start-2 inactive
O=C(c1cccnc1)N1C[C@@H]2[C@H](c3ccccc31)[C@H](CO)N2C(=O)C1CC1	Yeast UUG start-1 115.5 | Yeast UUG start-2 inactive
COc1ccc(Nc2cc(C)nc(NCc3ccccc3)n2)cc1	Yeast UUG start-1 623.9 | Yeast UUG start-2 inactive
C[C@@H]1CN([C@@H](C)CO)C(=O)c2cccc(NC(=O)c3ccc(-c4nccs4)cc3)c2O[C@@H]1CN(C)C(=O)Nc1ccc2c(c1)OCO2	none
COC(=O)C1=C2CC[C@H](CO)NC(=O)N[C@H](Cc3ccccc3)C(=O)NCc3cn(nn3)C[C@@H](Cc3ccccc3)NC(=O)c3oc(c(C(=O)OC)c3C(=O)OC)CC[C@H](CO)NC(=O)N[C@H](Cc3ccccc3)C(=O)NCc3cn(nn3)C[C@@H](Cc3ccccc3)NC(=O)C(=C1C(=O)OC)O2	none (no result: E-sel inducer)
COC(=O)c1c2oc(c1C(=O)OC)C(=O)N[C@H](Cc1ccccc1)Cn1cc(nn1)CNC(=O)[C@H](Cc1ccccc1)NC(=O)N[C@@H](CO)CC2	Yeast UUG start-1 215.9 (no result: E-sel inducer) | Yeast UUG start-2 inactive
COC(=O)c1c2oc(c1C(=O)OC)C(=O)N[C@@H](Cc1ccccc1)Cn1cc(nn1)CNC(=O)[C@H](Cc1ccccc1)NC(=O)N[C@@H](CO)CC2	Yeast UUG start-1 112.9 (no result: E-sel inducer) | Yeast UUG start-2 inactive
